Source: patent US20250346585A1 (Alexion Pharmaceuticals, Inc., priority 2022, published 2025)
pIC50: −log10 of the molar value. Read-outs that look alike come from different tables or passages of the source.

The chains behind the UniProt entries cited, without tags or fusion partners. Residues count along the entry.
UniProt P09871, 438-688 limits assumed: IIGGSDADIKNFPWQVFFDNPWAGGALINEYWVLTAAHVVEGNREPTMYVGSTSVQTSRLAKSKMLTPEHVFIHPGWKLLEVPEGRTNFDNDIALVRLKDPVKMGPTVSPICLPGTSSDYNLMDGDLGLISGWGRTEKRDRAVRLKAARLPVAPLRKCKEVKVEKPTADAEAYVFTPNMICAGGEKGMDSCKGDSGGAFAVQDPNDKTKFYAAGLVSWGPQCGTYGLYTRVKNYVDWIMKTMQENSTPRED
UniProt P09871, 16-437 partner limits assumed: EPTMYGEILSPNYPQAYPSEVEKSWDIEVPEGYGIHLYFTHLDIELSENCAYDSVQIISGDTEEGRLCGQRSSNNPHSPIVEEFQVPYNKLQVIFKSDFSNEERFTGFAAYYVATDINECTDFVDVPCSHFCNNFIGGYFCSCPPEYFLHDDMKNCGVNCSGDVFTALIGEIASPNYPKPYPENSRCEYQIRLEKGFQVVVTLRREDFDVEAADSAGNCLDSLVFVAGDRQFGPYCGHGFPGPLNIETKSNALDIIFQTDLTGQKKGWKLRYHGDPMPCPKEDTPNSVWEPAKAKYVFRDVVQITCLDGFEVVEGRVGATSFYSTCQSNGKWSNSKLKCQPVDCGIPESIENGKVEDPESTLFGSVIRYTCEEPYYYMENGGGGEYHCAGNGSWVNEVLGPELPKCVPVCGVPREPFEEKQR

Target: Human complement C1s enzyme (Homo sapiens (Human), UniProt P09871)
Assay: Human C1s enzyme assay
Type: biochemical
Details: read-out: IC50 (Stars)
Procedure: Human complement C1s enzyme (purified from human serum, Complement Technology, Inc.) at 1.16 nM final concentration was incubated with test compound at various concentrations for 5 min at room temperature in 50 mM Tris, 1 M NaCl, pH 7.5. A synthetic substrate Z-L-Lys-SBzl and DTNB (Ellman's reagent) were added to final concentrations of 100 μM each. Absorbance at 405 nm (A405) was recorded at 30 second intervals for 30 min using a microplate spectrophotometer. IC50 values were calculated by nonlinear regression of complement C1s reaction rates as a function of test compound concentration.

| SMILES | pIC50 (Human complement C1s enzyme 1.16 nM, substrate Z-L-Lys-SBzl 100 μM, assay of Example 3) | pIC50 (Human C1s enzyme assay of Example 3) |
| --- | --- | --- |
| C[C@@H](NC(=O)[C@@H]1C[C@](F)(Cn2ccnc2)CN1C(=O)CNC(=O)c1ccc2c(c1)-c1ccccc1C2(F)F)c1cc(C(=N)N)cs1 | > 7.00 | – |
| C[C@@H](NC(=O)[C@@H]1C[C@](F)(COCCCCCCCC(=O)O)CN1C(=O)CNC(=O)c1ccc2c(c1)-c1ccccc1C2(F)F)c1cc(C(=N)N)cs1 | – | > 7.00 |
